Data as given in patent publication US5587392A, “Azolyl methyl phenyl derivatives having aromatase inhibitory activity” (Mochida Pharmaceutical Co., Ltd., priority 1994, dated 1996).

Tested on: plasma estradiol
Assay: Decreasing activity on blood estrogen (plasma estradiol, PMSG-treated rats)
Format: in vivo, female SD rats
Conditions: Rattus norvegicus, po, 4 h, read-out: Ratio in plasma estradiol decrease
Protocol: More specifically, pregnant mare serum gonadotropin (PMSG) was subcutaneously administered to female SD rats aged 3 weeks, at a dose of 200 IU/rat. […] Four hours after the dosing of the test compound, blood was sampled, and plasma estradiol was messuered by radioimmunoassay(RIA). The decreasing ratio (%) in plasma estradiol levels was calculated by comparing with control groups.

SMILES: N#Cc1ccc(C2CCCc3cncn32)cc1 (stereo not drawn) [CGS 16949A, 5-(p-cyanophenyl)-5,6,7,8-tetrahydroimidazo[1,5-a]pyridine]
- inhibition in vivo at 0.001 mg/kg: 44%
- inhibition in vivo at 0.01 mg/kg: 81%
- inhibition in vivo at 0.1 mg/kg: 94%
